# The entries are a selection whose mix differs from that of the whole data set. Records with an inconclusive call do not appear. Active and inactive are the calls of the source. Calls follow the shape of the dose curve; as a rule, active = well fitted cell-killing curve with a large enough effect; inconclusive = small, poorly fitted or top-dose-only effect, or effect the other way; inactive = flat fitted curve, though single readings scatter.
# Assay: Cell viability qHTS assay in S16 Pmp22-F2sN cells - Confirmatory screen
# Details: S16 Schwann cells viability, CellTiter-Glo ATP luminescence, 24 h; at 57.5 µM (top of the series)
# Excerpt: Assay Provider: Jim Inglese Ph.D. National Center for Advancing Translational Science, National Institutes of Health, Rockville, MD CMT is a heterogeneous group of neurological disorders that affect approximately 1 in 2,500 people. In particular, the most common form of CMT, CMT1A is genetically linked to the duplication of the PMP22 gene which leads to Schwann cell overexpression, thus manifesting itself as a typical case of dose-sensitive diseases. […] We can further discriminate the effect of all transcriptionally active molecules on PMP22 translation or stability with an assay that incorporates a short NLuc peptide (HiBiT) at the C-terminus of expressed PMP22 (S16(f8) PMP22-HiBiT) allowing alpha complementation and luminescence detection of membrane-associated PMP22 protein. […] Miniaturization of these assays to 1536-well plate format for quantitative high throughput screening (qHTS) yielded rich data sets immediately from the qHTS assay (S16(c9) Pmp22-F2sN), when compared with data from a cell viability assay (Cell TiterGlo) to identify compounds that decreased the output signals through cellular toxicity to streamline the selection process of actives for subsequent characterization using the HiBiT assay (S16(f8) PMP22-HiBiT). […]
# % is scaled to controls: 0 for no effect and ±100 for the full control effect.
smiles,measurement,value
CC(C)(C)c1ccc(C(=O)NCC2(N3CCOCC3)CCCCC2)cc1,"activity change, negative = viability loss",inactive: 1.21%

# Source: PubChem BioAssay AID1508641 (National Center for Advancing Translational Sciences (NCATS), 2021)
